Nrf2 inh = Nrf2 pathway inhibition; 360,000 compounds, 2.1% hits; Potency, µM (highest dose often 46 µM), for the others: top-dose activity change, negative = inhibition, usual class: inhibitors; A549 ARE-Fluc reporter, luciferase luminescence, 18-24 h; note: potency is the fitted concentration of half-maximal effect; % is set by controls: 0 for no effect and ±100 for the full control effect; nearly all actives have a fitted effect of over 60% in size
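A549 ARE_Fluc cells (5000/well, 5% FBS OPTI-MEM) pre-incubated 2 h, then treated with compounds 18-24 h at 37C/5% CO2 in concentration-response. CellTiter-Fluor viability read first; BugLite luciferase luminescence after 15 min at room temperature gives Nrf2 activity.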
TCR activator = activates T cell receptor signaling. primary human leukocytes, anti-CD3, IL-2 HTRF, 48 h. Potency, µM (top dose mostly 9.22 µM), for the others: at the top dose activation of IL-2 secretion, usual class: activators. 330,000 tested, under 10 active; note: % of control where 0% means no effect
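Primary human leukocytes were stimulated with a-CD3 beads plus compounds for 48 hr without co-stimulation; secreted IL-2 was quantified by HTRF using a-IL-2-K (europium cryptate) and a-IL-2-d2, excited at 320nm with acceptor emission read at 665nm.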
A549 viability = counter-screen for Nrf2 inhibitors: cytotoxicity in A549 cells; A549 ARE-Fluc cells, CellTiter-Fluor viability, 18-24 h; Potency, µM (highest dose often 46 µM), without a hit: at the highest dose activity change, negative = cytotoxicity, usual class: inhibitors; 390,000 compounds, 0.16% hits; AID 504648; note: potency is the fitted concentration of half-maximal effect; % is set by controls: 0 for no effect and ±100 for the full control effect
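A549 ARE-Fluc cells in 5% FBS OPTI-MEM, 5000 cells/well, rested 2 h then exposed to compounds in concentration-response for 18-24 h at 37 °C. Viability by CellTiter-Fluor fluorescence (Ex 405/Em 525) after 30 min; luciferase luminescence (BugLite, 15 min, RT) read afterwards.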
miR-21 FLuc = raises the signal of a miR-21 reporter | HeLa miR-21 FLuc reporter, luciferase, 48 h | Potency, µM (doses to about 38.3 µM), without a hit: at the top dose reporter change, positive = more light | 340,000 tested, under 10 active | AID 2288; active = well fitted rising curve with a large enough effect; inconclusive = small, poorly fitted or top-dose-only effect; inactive = no such curve, though single readings can be large or run the other way;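 note: % of control where 0% means no effect; miR-21 action dims this reporter so a rising signal means less miR-21 action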
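Using DMEM plus 10% FBS, HeLa miR-21-FLuc cells are incubated with test compounds (final up to about 40uM) for 48 hours; firefly luciferase signal is then imaged following reagent-mediated lysis.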
ClpP mod = qHTS Assay for Activators of ClpP | 340,000 compounds, 1.9% hits | Potency, µM (highest dose often 57.5 µM), for inactives: at the highest dose activity change, negative = active | AID 651965, 2013 | purified B. subtilis ClpP, FRET peptide cleavage, 20 min | ATP-dependent Clp protease proteolytic subunit (Bacillus subtilis (strain 168)), P80244; active = well fitted falling curve with a large enough effect; inconclusive = small, poorly fitted or top-dose-only effect; inactive = no such curve, though single readings can be large or run the other way; note: potency is the fitted concentration of half-maximal effect; the source files actives as falling curves though it sought activators and does not explain the sign; nearly all actives have a fitted effect of over 65% in size
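ClpP 10 microg/mL final, pH 8 Tris/KCl buffer with BSA, glycerol, Tween-20; compound pinned in; FRET-FV substrate; RT 20 min; Ex320/Em430; ΔFRET vs ADEP 5.8 microM, DMSO, no enzyme.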
Nrf2 ARE act = activates Nrf2 signaling; AREc32 ARE-luciferase reporter (MCF7-derived line), luminescence, 24 h; Potency, µM (top dose mostly 46.1 µM), inactives show at the highest dose activation, actives largely listed as activators; 410,000 compounds, 0.31% hits; AID 624171; note: potency is the fitted concentration of half-maximal effect; % of control where 0% means no effect; nearly all actives have a fitted effect of over 65% in size
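ARE activation measured as luciferase luminescence (Steady-Glo, 30 min RT) in AREc32_Fluc cells after 24 hr compound exposure at 37 deg C, 5% CO2; cells seeded overnight at 1000/well in OPTI-MEM, 5% FBS.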
The depositor's hits bear a star; u = inconclusive; x = not tested or not shown; ! = not confirmed by another sample; [ ] = another dose, or the depositor's remark. An excerpt weighted towards active compounds, which were near 3.7% of everything screened. Unless noted, calls come from the whole dose curve; as a rule, active = well fitted curve in the direction sought with a large enough effect; inconclusive = small, poorly fitted or top-dose-only effect, or another doubt; inactive = no such curve, though single readings can be large; an effect the other way counts as inactive or inconclusive.

cpd	compound	Nrf2 inh	TCR activator	A549 viability	miR-21 FLuc	ClpP mod	Nrf2 ARE act
1	CCCCCCCCCCCCCCCC[n+]1cccc2ccccc21	26µM*	-1%[46.1 µM]	-17%	u	-8%	-3%
2	CCCCCCCCCC[n+]1cccc2cc(Br)ccc21	x	x	x	x	-1%	x
3	CCCCCCCCC[n+]1cccc2c3ccccc3ccc21	9.2µM*	-2%	u	u	u	6%
4	CCC(C)c1ccc(C(CC)NC(=O)C2CCCO2)cc1 (configuration not stated)	-55%	2%	-4%	11%	-4%	0%
5	CCOC(=O)Nc1cccc(OCC(=O)Nc2ccc3c(c2)CCC3)c1	u	-7%	-10%	x	2%	6%
6	O=C(NN=Cc1cccc(O)c1O)c1ccccc1	x	x	x	x	2%	-1%
7	O=c1c2cn[nH]c2nc(SCc2cccc(Br)c2)n1-c1ccc(Cl)cc1	x	x	6%	u	-2%	2%
8	O=c1c2cn[nH]c2nc(SCc2ccc3c(c2)OCCO3)n1-c1ccccc1	21µM*	-8%	-16%	-5%	1%	3%
9	COc1ccc(CCC(=O)N2c3ccccc3N=C(c3ccc4c(c3)OCO4)C2C(=O)NCc2ccccc2)cc1 (configuration not stated)	x	x	x	x	32µM*	x
10	COc1ccc(C2=CC(c3ccc(C)cc3)n3nnnc3N2)cc1 (configuration not stated)	15%	-4%	11%	-3%	25µM*	1%
11	COc1cccc(C2C=C(c3ccc(OC)cc3OC)Nc3nnnn32)c1 (configuration not stated)	18µM*	3%	u	26%	-3%	3%
12	COc1ccc(C2C=C(c3ccccc3)Nc3nnnn32)cc1 (configuration not stated)	u	-8%	2%	-31%	u	8%
13	CCCCC(=O)N(C)c1c(C)nc2ccc(C(=O)N3CCN(c4ccccc4)CC3)cn12	x	x	x	x	-6%	1%
14	COc1cccc(NC(=O)C2(C)CCN2C(=O)CC2CCCC2)c1 (configuration not stated)	x	x	x	x	-2%	-1%
15	C=CCn1c(SCC(=O)NC(=O)NCCC)nnc1C1CCCCC1	x	0%	7%	0%	3.2µM*	-1%

From entry 1 to 4, as listed above:
cpd	compound	Nrf2 inh	TCR activator	A549 viability	miR-21 FLuc	ClpP mod	Nrf2 ARE act
1	CCCCCCCCCCCCCCCC[n+]1cccc2ccccc21	26µM*	-1%[46.1 µM]	-17%	u	-8%	-3%
2	CCCCCCCCCC[n+]1cccc2cc(Br)ccc21	x	x	x	x	-1%	x
3	CCCCCCCCC[n+]1cccc2c3ccccc3ccc21	9.2µM*	-2%	u	u	u	6%
4	CCC(C)c1ccc(C(CC)NC(=O)C2CCCO2)cc1 (configuration not stated)	-55%	2%	-4%	11%	-4%	0%

Additional structures follow:
cpd	compound	Nrf2 inh	TCR activator	A549 viability	miR-21 FLuc	ClpP mod	Nrf2 ARE act
16	C=CCn1c(SCC(=O)NC(=O)NC)nnc1C1CCCCC1	-9%	-8%	0%	0%	x	-1%
17	CCOc1ccc(NC(=O)C2CC(=O)N(CCc3ccc(OC)c(OC)c3)C2)cc1OCC (configuration not stated)	-9%	x	11%	x	1%	-1%
18	O=C(Nc1ccc2oc(-c3ccc4ccccc4c3)nc2c1)c1cccc(Cl)c1Cl	18%	x	2%	-38%	4%	0%
19	Cc1ccc2nc(-c3ccc(C)c(NC(=O)CSc4ccc(Cl)cc4)c3)oc2c1	u	x	-5%	-67%	-13%	4%
20	COc1ccc2oc(-c3ccc(NC(=O)c4ccc(Cl)cc4Cl)cc3)nc2c1	u	x	1%	-2%	35µM*	-1%
21	COc1ccc2oc(-c3ccc(C)c(NC(=O)CSc4ccc(Cl)cc4)c3)nc2c1	u	-5%	-26%	-36%	11µM*!	4%
22	CCc1ccc2oc(-c3ccc(NC(=O)c4cccc(Cl)c4Cl)cc3)nc2c1	8.2µM*	x	-1%	13%	4%	0%
23	CN(C)C/C=C(/c1ccc(Br)cc1)c1cccnc1	-3%	2%	15%	x	-4%	3%
24	Cc1cc(C)cc(NC(=O)CCc2c(C)nc3c4cccnc4nn3c2C)c1	u	x	-10%	2%	4%	0%
25	CCOc1ccccc1NC(=O)CCc1c(C)nc2c3cccnc3nn2c1C	-11%	x	-7%	1%	28µM*	0%
26	O=C(CNC(=O)c1ccccc1)N[C@@H](C(=O)Nc1cc(C(F)(F)F)ccc1Cl)c1ccccc1	u	x	-2%	x	x	x
27	CCCCOC(=O)CSC1=C(C#N)C(c2ccccc2OCC)C(C#N)C(=O)N1 (configuration not stated)	10µM*	-4%	u	-12%	-23%	0%
28	CCCOC(=O)CSC1=C(C#N)C(c2ccccc2OCC)C(C#N)C(=O)N1 (configuration not stated)	-24%	-4%	-17%	-12%	4%	0%
29	Cc1cccc(NC(=O)C(=O)NCC(c2cccnc2)N2CCOCC2)c1 (configuration not stated)	u	x	-10%	u	-1%	0%
30	CCCC(=O)N1CCN(c2ccc(NC(=O)c3ccc([N+](=O)[O-])o3)cc2Cl)CC1	16µM*	-6%	u	20%	x	u
31	CN1CCN(c2ccc(NC(=O)c3ccc([N+](=O)[O-])o3)cc2Cl)CC1	u	-3%	-3%	-3%	x	u
32	CCOc1ccc(OC(=O)c2c(-c3ccccc3Cl)noc2C)cc1	x	x	15%	-11%	1%	1%
33	O=C1Cc2cccc3cccc1c23	8%	x	3%	-2%	22µM*	u
34	O=C1N=c2ccc(Br)cc2=C1c1sc(=S)n(NS(=O)(=O)c2ccccc2)c1O	18%	x	-6%	-7%	x	6%
35	Cc1cc(-c2nnc(CCC(=O)NCc3cc(F)cc(C(F)(F)F)c3)o2)no1	-22%	1%	0%	-30%	28µM*	6%
36	Cc1cc(-c2nnc(CCC(=O)NCC(C)c3ccccc3)o2)no1 (configuration not stated)	3%	0%	-14%	-7%	-11%	0%
37	Cc1ccc([N+](=O)[O-])cc1N(CC(=O)Nc1ccc(S(=O)(=O)Nc2cccc(C(F)(F)F)c2)cc1)S(C)(=O)=O	21µM*	-4%[46.1 µM]	u	u	-2%	-1%
38	COc1ccccc1N(CC(=O)Nc1cccc(C(F)(F)F)c1)S(C)(=O)=O	-4%	-6%	1%	1%	x	0%
39	COc1ccc(NC(=O)Cn2nnc(C(=O)NCc3cccs3)c2N)c(OC)c1	18µM*	-5%	u	2%	-5%	0%
40	CCC(C(=O)N1CCN(Cc2ccc3c(c2)OCO3)CC1)n1nnc2ccccc2c1=O (configuration not stated)	x	x	x	x	-1%	0%
41	CCOC(=O)N1CCC(NC(=O)CSCc2nc(-c3cccc(OC)c3)oc2C)CC1	18µM*	2%	-3%	17%	-24%	0%
42	COc1cccc(-c2nc(CS(=O)(=O)CC(=O)NC3CCC(C)CC3)c(C)o2)c1 (configuration not stated)	u	10%	-9%	14%	-13%	0%
43	CCOC(=O)N1CCC(NC(=O)CSCc2nc(-c3ccc(OCC)cc3)oc2C)CC1	-29%	-4%	1%	2%	4%	0%

Two compounds picked at random from those above:
cpd	compound	Nrf2 inh	TCR activator	A549 viability	miR-21 FLuc	ClpP mod	Nrf2 ARE act
32	CCOc1ccc(OC(=O)c2c(-c3ccccc3Cl)noc2C)cc1	x	x	15%	-11%	1%	1%
41	CCOC(=O)N1CCC(NC(=O)CSCc2nc(-c3cccc(OC)c3)oc2C)CC1	18µM*	2%	-3%	17%	-24%	0%
